From patent publication US6849602B1, “Compositions for alleviating neuropathic pain with prosaposin receptor agonists” (The Regents of the University of California, priority 1996, dated 2005)

What was measured:
Chung model rats = test: Tactile allodynia (von Frey, 50% paw withdrawal threshold) after bolus intrathecal injection in Chung model rats; assay type: in vivo, rat; settings: any concentration tested
Experimental: This EXAMPLE describes the effects of bolus intrathecal injection of an active fragment of prosaposin in the Chung experimental model of peripheral neuropathic pain.
Each of the three peptides were obtained in pure form by chemical synthesis, dissolved in sterile PBS and buffered to a neutral pH.
The surgical procedure previously described by Kim and Chung, supra (1992) was performed on male Sprague-Dawley rats weighing 120 to 150 grams to induce an allodynic state. Briefly, the rats were anesthetized with halothane; subsequently, the left L-5 and L-6 spinal nerves were isolated adjacent to the vertebral column and ligated with 6.0 silk suture distal to the dorsal root ganglion.
After a ten to fourteen day post operative recovery period, a spinal catheter was introduced. Five days following the second surgery, intrathecal drug administration was accomplished using a gear driven micro-injection syringe connected to a spinal catheter inserted through the foramen magnum. Prior to testing, the rats were placed in clear plastic wire meshed cages and allowed to acclimate.
To assess the 50% mechanical threshold for paw withdrawal, a von Frey hair was applied to the hind foot avoiding the foot pad. […] The X-axis indicates the time after the injection at which point the hypersensitivity to pressure on the foot pad was measured.

[1] = Percentage of intact radiolabeled material in brain, liver and blood by HPLC; assay type: in vivo, rat
Experimental: In order to determine the percentage of intact material in the brain, liver and blood, radiolabeled material (SEQ ID NO:2) isolated from the tissues was analyzed by high pressure liquid chromatography. To normalize for degradation during processing of tissue homogenates, peptide SEQ ID NO:2 was added to tissue homogenates. The extent of degradation observed with the added peptide material was used to normalize for degradation during tissue processing. After normalization, the results were as follows: SEQ ID NO:2 was about 60% intact in brain; about 80% intact in liver and about 40% intact in blood. In a second experiment, peptide SEQ ID NO:2 was about 68% intact in brain.

[2] = In vivo tissue distribution / blood-brain barrier crossing of radiolabeled peptide SEQ ID NO:2; parameters: species or system rat
Experimental: The prosaposin-derived peptide SEQ ID NO:2 also was assayed for ability to cross the blood-brain barrier as follows. A female Sprague-Dawley rat was anesthesized with methoxyflurane, and approximately 20 μg peptide SEQ ID NO:2 (3.2×10^8 cpm) was injected into the tail vein. After 40 minutes, the rat was sacrificed by ether anesthesia and perfused with about 250 ml PBS through the heart. The total amount of peptide in brain, liver and blood was calculated as a percentage of the injected material as shown in TABLE 6. In order to determine the localization in brain, the capillary depletion method of Triguero, J. Neurochem. 54:1882 (1990) was used to separate brain tissue into a parenchyma fraction and a brain capillary fraction.
In a similar experiment in which rats were sacrificed after three hours treatment with SEQ ID NO:2, 0.06% of the peptide was evident in brain, of which 85% was in the parenchyma. […] The percentage of peptide which crossed the blood brain barrier is in the mid-range of peptides which cross the barrier as set forth in Banks, supra (1992).

[3] = 40 minutes, capillary depletion method
[4] = Blood, 40 minutes after tail vein injection
[5] = Liver, 40 minutes after tail vein injection

| Substance | side effects such as sedation (Chung model rats) | intact peptide in blood ([1]; HPLC, after normalization) | intact peptide in brain ([1]; HPLC, after normalization) | intact peptide in liver ([1]; HPLC, after normalization) | intact peptide in brain ([1]; second experiment) | peptide present in brain found in brain capillary [2, 3] [%] | peptide present in brain localized to brain parenchyma [2, 3] [%] | PERCENTAGE OF INITIAL CPM [2, 4] [%] | TOTAL CPM IN TISSUE [2, 4] | PERCENTAGE OF INITIAL CPM ([2]; Brain, 40 minutes after tail vein injection) [%] | TOTAL CPM IN TISSUE ([2]; Brain, 40 minutes after tail vein injection of 3.2×10^8 cpm) | PERCENTAGE OF INITIAL CPM [2, 5] [%] | TOTAL CPM IN TISSUE [2, 5] | brain peptide in the parenchyma ([2]; after three hours) [%] | peptide evident in brain ([2]; after three hours) [%] |
| --- | --- | --- | --- | --- | --- | --- | --- | --- | --- | --- | --- | --- | --- | --- | --- |
| Cys-Glu-Phe-Leu-Val-Lys-Glu-Val-Thr-Lys-Leu-Ile-Asp-Asn-Asn-Lys-Thr-Glu-Lys-Glu-Ile-Leu [SEQ ID NO:1] | No significant side effects such as sedation were observed | – | – | – | – | – | – | – | – | – | – | – | – | – | – |
| Thr-D-Ala-Leu-Ile-Asp-Asn-Asn-Ala-Thr-Glu-Glu-Ile-Leu-Tyr [SEQ ID NO:2] | No side effects were observed | about 40% | about 60% | about 80% | about 68% | 13 | 87 | 31.6 | 1.01 × 10^8 CPM | 0.050 | 161,000 CPM | 1.625 | 5.2 × 10^6 CPM | 85 | 0.06 |
